In brackets after ≈: the same amount, converted by molar mass.
What was measured:
Type in all cases: cell-based
S. pneumoniae MSC07571 = assay: MIC against S. pneumoniae MSC07571 (CLSI M7-A7 agar method); details: Streptococcus pneumoniae, MSC07571, read-out: minimal inhibitory concentration (MIC)
Protocol: (§1) For representative compounds among lincomycin derivatives according to the present invention, the minimal inhibitory concentration (MIC, […]) against various pneumococci was measured according to the method described in Clinical and Laboratory Standards Institute, M7-A7, 2006. Sensitivity disk agar-N+5% horse aseptic defibranated blood was used as the medium for the measurement. The amount of bacteria inoculated was about 10^4 CFU/ml.

S. pneumoniae MSC07465 = assay: MIC against S. pneumoniae MSC07465 (CLSI M7-A7 agar method); details: Streptococcus pneumoniae, MSC07465, read-out: minimal inhibitory concentration (MIC)
Protocol: as §1

S. pneumoniae MSC17994 = assay: MIC against S. pneumoniae MSC17994 (CLSI M7-A7 agar method); details: Streptococcus pneumoniae, MSC17994, read-out: minimal inhibitory concentration (MIC)
Protocol: as §1

S. pneumoniae MSC10197 = assay: MIC against S. pneumoniae MSC10197 (CLSI M7-A7 agar method); details: Streptococcus pneumoniae, MSC10197, read-out: minimal inhibitory concentration (MIC)
Protocol: as §1

- MIC (S. pneumoniae MSC07571): 60 µg/mL (≈ 141 µM)
- MIC (S. pneumoniae MSC07465): 30 µg/mL (≈ 70.6 µM)
- MIC (S. pneumoniae MSC17994): 60 µg/mL (≈ 141 µM)
- MIC (S. pneumoniae MSC10197): 30 µg/mL (≈ 70.6 µM)
Compound: CCC[C@@H]1C[C@@H](C(=O)N[C@@H]([C@H]2O[C@H](SC)[C@H](O)[C@@H](O)[C@H]2O)[C@H](C)Cl)N(C)C1 [CLDM, clindamycin, reference compound]

— patent publication US7879808B2, “Lincomycin derivatives and antimicrobial agents comprising the same as active ingredient” (Meiji Seika Kaisha, Ltd., priority 2007, dated 2011)
